Amino acid sequences for entries named in this document (tags omitted). A change or cut given only in a name is not applied to a line headed by its entry.
UniProt Q9Y2T6: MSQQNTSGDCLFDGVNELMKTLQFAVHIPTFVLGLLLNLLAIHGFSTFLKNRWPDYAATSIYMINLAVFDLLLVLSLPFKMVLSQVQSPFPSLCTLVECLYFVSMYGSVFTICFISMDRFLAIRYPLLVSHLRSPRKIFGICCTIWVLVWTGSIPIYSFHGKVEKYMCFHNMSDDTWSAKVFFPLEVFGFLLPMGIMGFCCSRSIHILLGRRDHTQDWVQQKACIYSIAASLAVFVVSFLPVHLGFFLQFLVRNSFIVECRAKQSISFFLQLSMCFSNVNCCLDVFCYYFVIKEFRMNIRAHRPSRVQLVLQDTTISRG

According to ChEMBL document CHEMBL4725451, “Discovery of Tricyclic Xanthines as Agonists of the Cannabinoid-Activated Orphan G-Protein-Coupled Receptor GPR18” (ACS Med Chem Lett, 2020):

Experiments:
[1] = target: T1, N-arachidonyl glycine receptor (Homo sapiens) (UniProt Q14330); experiment: Agonist activity at Prolink1-tagged human GPR18 receptor expressed in CHO cells assessed as induction of beta-arrestin recruitment at 10 uM after 90 mins by beta-galactosidase based topcount luminescence analysis relative to control; type: cell-based
T1 sequence (whole entry): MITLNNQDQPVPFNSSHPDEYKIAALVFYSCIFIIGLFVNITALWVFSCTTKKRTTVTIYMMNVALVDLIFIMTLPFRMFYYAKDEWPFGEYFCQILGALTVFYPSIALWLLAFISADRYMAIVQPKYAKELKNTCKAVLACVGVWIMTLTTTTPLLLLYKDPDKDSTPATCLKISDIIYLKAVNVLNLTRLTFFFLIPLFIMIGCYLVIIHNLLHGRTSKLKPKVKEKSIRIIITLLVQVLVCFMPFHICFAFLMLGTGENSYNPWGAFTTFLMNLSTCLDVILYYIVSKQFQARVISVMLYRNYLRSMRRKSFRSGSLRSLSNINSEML
Outline: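 CHO cells stably expressing human GPR18, β-arrestin enzyme-complementation assay with luminescence read-out. Test compound at 10 μM single concentration; signal normalized to that of 10 μM Δ9-THC.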

[2] = target: T2, G-protein coupled receptor 55 (Homo sapiens, UniProt Q9Y2T6); experiment: Agonist activity at Prolink1-tagged human GPR55 receptor expressed in CHO cells assessed as induction of beta-arrestin recruitment at 10 uM after 90 mins by beta-galactosidase based topcount luminescence analysis relative to control; type: cell-based
Outline: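 CHO cells stably expressing GPR55, β2-arrestin recruitment detected by enzyme complementation and luminescence. Compounds tested at 10 μM; effect normalized to signal from 1 μM LPI.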

[3] = target: T2, G-protein coupled receptor 55; experiment: Antagonist activity at Prolink1-tagged human GPR55 receptor expressed in CHO cells assessed as inhibition of lysophosphatidylinositol-induced beta arrestin recruitment at 10 uM after 90 mins by beta-galactosidase based topcount luminescence analysis relative to control; type: functional, cell-based
Outline: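 GPR55-expressing CHO cells, β-arrestin complementation luminescence. Percent inhibition by test compound at 10 μM of the response to 1 μM LPI.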

| SMILES | Activity [1] [%] | Activity [2] [%] | inhibition [3] [%] |
| --- | --- | --- | --- |
| C=C(C)[C@@H]1CCC(C)=C[C@H]1c1c(O)cc(O)cc1CCCCC | -50 | – | – |
| Cn1c(=O)c2c(nc3n2CCCCN3CCc2c[nH]c3ccccc23)n(C)c1=O | – | 38 | 21 |
| Cn1c(=O)c2c(nc3n2CCN3CCc2c[nH]c3ccccc23)n(C)c1=O | – | 20 | 27 |
| CCCCC/C=C\C/C=C\C/C=C\C/C=C\CCCC(=O)NCC(=O)O [ARACHIDONOYL GLYCINE] | 10 | – | – |
